pIC50: −log10 of the molar value.
Molecular target: Bifunctional protein GlmU (Streptococcus pneumoniae serotype 4 (strain ATCC BAA-334 / TIGR4), UniProt Q97R46)
Assay: Inhibition of Streptococcus pneumoniae acetyltransferase activity of GlmU using acetyl-CoA and glucosamine-1-phosphate after 30 mins by Ellman's method

Chains of the proteins cited; added tags and fusions are not shown. Lines headed by an entry give the natural chain unless they say otherwise; changes in a name come on top.
UniProt Q97R46: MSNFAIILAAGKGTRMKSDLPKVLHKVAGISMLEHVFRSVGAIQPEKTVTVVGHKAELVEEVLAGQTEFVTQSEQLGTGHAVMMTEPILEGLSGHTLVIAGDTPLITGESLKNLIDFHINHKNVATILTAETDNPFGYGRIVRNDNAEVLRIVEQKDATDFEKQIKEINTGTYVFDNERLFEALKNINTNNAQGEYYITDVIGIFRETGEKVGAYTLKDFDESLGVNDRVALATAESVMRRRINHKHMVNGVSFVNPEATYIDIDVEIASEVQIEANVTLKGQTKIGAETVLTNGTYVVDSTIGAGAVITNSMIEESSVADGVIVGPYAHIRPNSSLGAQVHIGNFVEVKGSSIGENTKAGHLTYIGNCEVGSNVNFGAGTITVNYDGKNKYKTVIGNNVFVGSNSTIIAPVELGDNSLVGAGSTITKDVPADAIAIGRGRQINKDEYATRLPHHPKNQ

COc1cc(OC)c(S(=O)(=O)NCc2ccccc2N2CCCCC2)cc1NC(C)=O
pIC50: 3.96

Reference: ChEMBL document CHEMBL1949578, “Inhibitors of acetyltransferase domain of N-acetylglucosamine-1-phosphate-uridyltransferase/glucosamine-1-phosphate-acetyltransferase (GlmU). Part 1: Hit to lead evaluation of a novel arylsulfonamide series” (Bioorg Med Chem Lett, 2012)
